# From publication PMC9697976, “Giardia lamblia G6PD::6PGL Fused Protein Inhibitors Decrease Trophozoite Viability: A New Alternative against Giardiasis” (International Journal of Molecular Sciences, 2022)
# Chains of the proteins cited; added tags and fusions are not shown.
# UniProt A8BWM5, entry or part of it: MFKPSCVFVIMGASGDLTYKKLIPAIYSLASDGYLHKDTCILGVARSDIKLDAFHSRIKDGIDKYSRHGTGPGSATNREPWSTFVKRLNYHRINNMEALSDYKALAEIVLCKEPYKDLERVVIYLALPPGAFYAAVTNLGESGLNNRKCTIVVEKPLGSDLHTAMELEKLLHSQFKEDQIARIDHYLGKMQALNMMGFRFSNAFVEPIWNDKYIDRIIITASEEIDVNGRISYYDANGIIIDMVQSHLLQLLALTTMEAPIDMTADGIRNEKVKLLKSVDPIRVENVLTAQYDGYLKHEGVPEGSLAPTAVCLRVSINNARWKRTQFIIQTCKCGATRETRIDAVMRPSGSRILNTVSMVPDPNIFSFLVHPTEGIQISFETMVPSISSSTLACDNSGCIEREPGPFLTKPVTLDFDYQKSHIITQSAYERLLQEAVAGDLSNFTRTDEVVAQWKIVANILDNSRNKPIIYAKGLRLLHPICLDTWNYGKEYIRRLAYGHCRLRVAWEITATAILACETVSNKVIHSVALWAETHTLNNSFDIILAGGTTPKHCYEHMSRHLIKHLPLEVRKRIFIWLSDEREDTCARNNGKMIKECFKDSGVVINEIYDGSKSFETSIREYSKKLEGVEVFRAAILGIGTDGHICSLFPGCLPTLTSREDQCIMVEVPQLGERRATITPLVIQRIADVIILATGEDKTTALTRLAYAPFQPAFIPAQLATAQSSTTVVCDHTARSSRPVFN
# Target: G6PD::6PGL fused enzyme (Giardia intestinalis, UniProt A8BWM5)
# Assay: Second-order inactivation constant (k2) of G6PD::6PGL
# Assay type: biochemical, Giardia lamblia
# Conditions: read-out: Second-order inactivation constant (k2), 0.2 mg/mL enzyme, 37 °C, 0–120 min
# Method: Figure 4 Inactivation of GlG6PD::6PGL by CNZ-7, CNZ-8, CMC-1, and FLP-2 chemical compounds. G6PD::6PGL enzyme was adjusted to 0.2 mg/mL and was incubated with different concentrations of (A) CNZ-7, (C) CNZ-8, (E) CMC-1, and (G) FLP-2 at 37 °C. At the indicated times, aliquots were withdrawn from the samples and assayed for residual activity. Initial velocity was fitted to determine each compound’s pseudo-first-order inactivation constants (k1). The second-order rate constant values of inactivation (k2) of each of the compounds (B) CNZ-7, (D) CNZ-8, (F) CMC-1, and (H) FLP-2 were obtained by fitting the calculated k1 value versus the concentration of the corresponding compound and adjusting to a linear regression model. All experiments were performed in triplicate. […] TEXT PRINTED IN THE PICTURE: (E) CNZ-7: k2 = 0.97 M^−1 × s^−1 | (F) CNZ-8: k2 = 0.60 (M^−1 × s^−1) | (G) CMC-1: k2 = 1.88 M^−1 × s^−1) | (H) FLP-2: k2 = 0.82 M^−1 × s^−1)
# Inactivation assays were performed to determine the rate of each to form the enzyme–inhibitor complex. […] After the incubation period, enzyme activity was measured spectrophotometrically following the reduction of NADP^+ at 340 nm for each experimental condition. […]
smiles,measurement,value
O=C1NC(=O)C(=Cc2ccc(OCc3ccccc3)cc2)C(=O)N1 [CMC-1],kinact/KI,1.88 M⁻¹ s⁻¹
